Compounds with a hit are over-represented: about 1.3% of the library has one in this group of screens.
S100A4 MyoIIA – inhibitors of human S100A4 binding to myosin IIA peptide; S100A4/TAMRA-MyoIIA peptide fluorescence polarization; inhibition, % at 10.7 µM; 360,000 compounds, 0.14% hits;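 active = mean inhibition of at least 70% across replicates, with every replicate also reaching that level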
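incubation = readout 5 min after mixing, signal stable up to 60 min | system = S100A4 monomer protein | buffer or medium = HEPES pH 7.2 with CaCl2, KCl, NaCl, DTT, Triton | benchmarks = neutral control DMSO, positive control TFP | also added = fluorescent myosin IIA peptide, 5 nM | compound dosing = one concentration per compound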
ERAP1 inh – blocks human ERAP1 aminopeptidase activity | Q9NZ08 | recombinant ERAP1, Leu-AMC fluorescence, 60 min | inhibition, % at 10.7 µM | 340,000 compounds, 0.15% hits | AID 652197;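 active = mean replicate inhibition of at least 30%, or all replicates individually reaching that 30% level; inactive = mean below 30% and not every replicate reaching it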;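 also: 0% = neutral control wells and 100% = L-leucinethiol positive control wells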
E-sel inducer – E-selectin induction on HUVECs | P16581 | activation, % at 7.58 µM | HUVEC E-selectin immunofluorescence imaging; normalized: neutral wells 0, TNF-alpha wells 100 | 260,000 compounds, 0.37% hits;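 active = mean E-selectin-positive cell signal at least 10% of the positive control, reached in at least 60% of replicates, without over 20% cell loss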
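assay system = HUVEC, human umbilical vein endothelial cells | input = 3,000 HUVEC seeded per well | medium = EGM-2 growth medium on 0.1% gelatin-coated wells | dosing = one compound dose added by pin transfer | signal = immunofluorescence imaging | read-out basis = % PE-positive cells | control set = TNF-alpha, DMSO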
AF4-AF9 inh – blocks AF4 peptide binding to human AF9 | P42568 | AlphaScreen, biotin-AF4 peptide binding to FLAG-AF9 | inhibition, % at 10 µM | 350,000 compounds, 0.47% hits | AID 651704;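 active = every replicate reaching a set inhibition limit, whatever the replicate mean, cut at about 25% in these data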;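 also: 0% = plate neutral control median and 100% = total signal loss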
ARNT TACC3 PPI – disruptors of human ARNT/TACC3 interaction; AlphaScreen His-ARNT PAS-B/GST-TACC3 binding, luminescence; TACC3 fragment carries E629A point mutation; inhibition, % at 9.99 µM; 390,000 compounds, 0.66% hits; AID 623870;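 active = mean inhibition of replicates at least 50% and at least half of replicates each reaching 50%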;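 also: 0% = complete ARNT plus TACC3 wells and 100% = ARNT alone without TACC3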
Yeast UUG start-1 – alters start codon recognition fidelity in yeast | S. cerevisiae UUG-firefly luciferase reporter, luminescence/redox ratio | activity score, % at 18.7 µM | 350,000 compounds, 0.13% hits | AID 602363;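 active = replicate mean at a twofold rise or more, about +100% in these data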;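 note: firefly luciferase made from a UUG start codon reports start codon fidelity; reporter light over untreated wells divided by growth signal over untreated wells; some hits fall short of that in this replicate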
Yeast UUG start-2 – alters UUG start codon use in yeast; S. cerevisiae UUG-start firefly luciferase, luminescence, 4 h; 100% means double the DMSO signal; activation, % at 38 µM; 540 tested, under 10 active; shares compounds with Yeast UUG start-1;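 active = signal increase whose fitted curve reaches an absolute level of 40 at a concentration under 10 µM; inactive = activity opposite to the expected increase, or the rest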
An asterisk follows results filed as active; i = inactive; · = not tested or not shown.

Results follow in this order: S100A4 MyoIIA, E-sel inducer, ARNT TACC3 PPI, AF4-AF9 inh, Yeast UUG start-1, ERAP1 inh, Yeast UUG start-2
#1 CC(C)NC(=O)N(C)C[C@H]1Oc2ccc(NC(=O)Nc3cccc4ccccc34)cc2C(=O)N([C@@H](C)CO)C[C@@H]1C
→ 8.5, 0.0, -1.2, -3.1, -0.7, -2.4, ·
#2 CC(C)NC(=O)N(C)C[C@@H]1Oc2ccc(NC(=O)Nc3cccc4ccccc34)cc2C(=O)N([C@@H](C)CO)C[C@@H]1C
→ 19.1, 1.1, 0.5, -1.7, 150.5*, 1.1, i
#3 C[C@@H]1CN([C@@H](C)CO)C(=O)Cc2cc(NS(=O)(=O)c3ccccc3)ccc2O[C@H]1CN(C)Cc1ccc(C(F)(F)F)cc1
→ -2.1, 0.3, -14.0, -4.1, 159.4*, -2.2, i
#4 CO[C@@H]1CN(C)C(=O)c2cc(NC(=O)C3CC3)ccc2OC[C@@H](C)N(Cc2cccc(F)c2)C[C@H]1C
→ 2.9, 0.0, -10.9, 1.6, -9.9, 3.1, ·
#5 CO[C@@H]1CN(C)C(=O)c2ccc(NC(=O)C3CCOCC3)cc2OC[C@@H](C)N(S(=O)(=O)c2ccc(C)cc2)C[C@H]1C
→ -10.7, -0.2, -6.0, -0.7, ·, 4.5, ·
#6 COc1ccc(S(=O)(=O)N(C)C[C@@H]2Oc3ncc(Br)cc3C(=O)N([C@H](C)CO)C[C@@H]2C)cc1
→ 1.4, 0.4, -6.4, 3.5, 14.5, 0.0, ·
#7 CN(C)CC#Cc1cccc(-c2nc(C(=O)N[C@@H]3CCN(Cc4ccccc4)C3)cc3c2[C@@H](CCO)N(S(=O)C(C)(C)C)C3)c1 (stereo partly drawn)
→ -81.9, ·, ·, 9.4, ·, -3.9, ·
#8 CCN(CC)CCNC(=O)C(C)c1nn(CC)c(=O)c2ccccc12 (stereo not drawn)
→ 2.8, ·, -2.1, 7.0, ·, 0.2, -4.7
#9 CCN(CC)CCNC(=O)Cc1nn(CC)c(=O)c2ccccc12
→ 5.3, ·, 33.0, -105.3, -1.1, 2.1, 5.8
#10 CCN(CC)CCNC(=O)Cn1nc(Cc2ccccc2)c2ccccc2c1=O
→ ·, ·, -4.7, ·, -17.9, ·, ·
#11 Cc1cccc(NC(=O)Cc2cccs2)n1
→ ·, ·, -5.1, ·, 542.3*, ·, 1.9
#12 CC(C)N(CCc1ccncc1)C(=S)Nc1ccc(F)c(Cl)c1
→ -0.1, ·, 6.7, 2.5, 262.9*, -6.7, -11.2
#13 CCOc1ccccc1OCC(=O)Nc1nc2ccccc2[nH]1
→ 2.0, -2.5, 2.3, -0.5, ·, 1.7, ·
#14 CCOc1ccccc1Nc1nc2ccccc2[nH]1
→ ·, ·, 28.3, ·, 580.8*, ·, -2.1
#15 CCN(CC)c1ccc(C=Nc2ccc(C#N)cc2)c(O)c1
→ ·, ·, 14.9, ·, 465.7*, ·, -6.4
#16 CCN(CC)c1ccc(C=Nc2ccccc2C)c(O)c1
→ -2.4, 0.9, 4.0, -10.9, -15.3, -0.8, ·
#17 Cc1c(C(=O)CN2CCCC(C)(C)C2)c2ccccc2n1C
→ 0.0, ·, 2.1, -1.6, active, 6.9, -0.7
#18 Cc1c(C(=O)CN2CCSCC2)c2ccccc2n1C
→ ·, ·, ·, ·, -19.8, ·, ·
#19 C[C@@H]1CCCCO[C@@H](CN(C)Cc2ccc(C(=O)O)cc2)[C@H](C)CN([C@H](C)CO)C(=O)c2cc(NS(=O)(=O)c3ccc(Cl)cc3)ccc2O1
→ -6.4, -0.2, -2.8, -1.7, 0.7, -9.0, ·
#20 CC(C)CC#Cc1ccc2c(c1)O[C@@H](CN(C)C(=O)c1cccnc1)[C@@H](C)CN([C@@H](C)CO)S2(=O)=O
→ 2.5, 0.0, 1.4, 7.5, 121.2*, 1.5, i
#21 C[C@H]1CN([C@@H](C)CO)S(=O)(=O)c2ccc(-c3cccnc3)cc2O[C@@H]1CN(C)C(=O)c1cccc(F)c1
→ 6.5, 0.2, 5.5, 0.5, 213.8*, -4.1, i
#22 CC(C)CC#Cc1ccc2c(c1)O[C@H](CN(C)C(=O)c1cccnc1)[C@@H](C)CN([C@@H](C)CO)S2(=O)=O
→ -4.1, 0.1, -0.7, 3.1, 7.5, 0.2, ·
#23 C[C@@H]1CN([C@@H](C)CO)S(=O)(=O)c2ccc(-c3cccnc3)cc2O[C@H]1CN(C)C(=O)c1cccc(F)c1
→ -1.7, 0.3, -3.9, 5.4, 3.5, -2.0, ·
#24 Cc1ccc(S(=O)(=O)N(C)C[C@H]2Oc3cc(-c4cccc(F)c4)ccc3S(=O)(=O)N([C@@H](C)CO)C[C@@H]2C)cc1
→ 5.0, 24.2, -6.6, 4.0, 106.1*, -0.4, i

Three of these compounds, reformatted.
nr	Molecule	S100A4 MyoIIA	E-sel inducer	ARNT TACC3 PPI	AF4-AF9 inh	Yeast UUG start-1	ERAP1 inh	Yeast UUG start-2
1	CC(C)NC(=O)N(C)C[C@H]1Oc2ccc(NC(=O)Nc3cccc4ccccc34)cc2C(=O)N([C@@H](C)CO)C[C@@H]1C	8.5	0.0	-1.2	-3.1	-0.7	-2.4	·
2	CC(C)NC(=O)N(C)C[C@@H]1Oc2ccc(NC(=O)Nc3cccc4ccccc34)cc2C(=O)N([C@@H](C)CO)C[C@@H]1C	19.1	1.1	0.5	-1.7	150.5*	1.1	i
3	C[C@@H]1CN([C@@H](C)CO)C(=O)Cc2cc(NS(=O)(=O)c3ccccc3)ccc2O[C@H]1CN(C)Cc1ccc(C(F)(F)F)cc1	-2.1	0.3	-14.0	-4.1	159.4*	-2.2	i

Bioassay records (PubChem)
